From article PMC12363935, “Unc-51 Like Kinase 3 (ULK3) is essential for autophagy and cell survival in multiple myeloma” (Research Square, 2025)

By UniProt entry, the sequences of proteins in these tests, tags left out.
UniProt O60674, whole entry: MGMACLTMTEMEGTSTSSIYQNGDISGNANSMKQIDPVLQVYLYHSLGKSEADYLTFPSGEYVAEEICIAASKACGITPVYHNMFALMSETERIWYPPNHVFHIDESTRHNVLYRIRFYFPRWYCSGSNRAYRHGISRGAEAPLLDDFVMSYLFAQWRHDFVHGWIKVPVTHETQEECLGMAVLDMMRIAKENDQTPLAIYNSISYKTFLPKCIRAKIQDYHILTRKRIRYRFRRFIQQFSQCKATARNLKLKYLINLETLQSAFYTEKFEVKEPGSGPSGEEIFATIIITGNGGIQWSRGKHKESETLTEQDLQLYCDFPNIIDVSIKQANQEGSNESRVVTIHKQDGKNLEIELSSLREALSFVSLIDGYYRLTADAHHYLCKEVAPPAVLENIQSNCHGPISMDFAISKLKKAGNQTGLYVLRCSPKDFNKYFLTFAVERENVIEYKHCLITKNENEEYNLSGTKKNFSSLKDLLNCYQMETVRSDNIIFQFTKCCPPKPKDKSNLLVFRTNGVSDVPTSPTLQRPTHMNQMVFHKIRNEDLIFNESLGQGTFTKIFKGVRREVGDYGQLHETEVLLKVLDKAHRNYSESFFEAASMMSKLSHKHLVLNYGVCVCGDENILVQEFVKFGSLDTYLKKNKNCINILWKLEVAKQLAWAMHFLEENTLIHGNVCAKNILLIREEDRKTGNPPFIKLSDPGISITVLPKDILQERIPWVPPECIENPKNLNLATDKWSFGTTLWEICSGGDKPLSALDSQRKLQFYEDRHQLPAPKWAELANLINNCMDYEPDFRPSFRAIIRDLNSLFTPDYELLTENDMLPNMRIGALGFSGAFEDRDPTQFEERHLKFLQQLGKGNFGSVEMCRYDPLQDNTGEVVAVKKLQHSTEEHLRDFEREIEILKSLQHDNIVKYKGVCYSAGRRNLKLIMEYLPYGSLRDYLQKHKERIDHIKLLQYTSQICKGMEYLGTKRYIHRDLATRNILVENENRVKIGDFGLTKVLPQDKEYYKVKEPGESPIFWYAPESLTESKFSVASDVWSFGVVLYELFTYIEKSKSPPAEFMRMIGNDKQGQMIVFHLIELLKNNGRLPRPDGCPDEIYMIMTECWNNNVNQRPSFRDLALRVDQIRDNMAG

How the values were obtained:
[1] = test system: osteoclasts; assay: In vitro osteoclast differentiation assay, TRAcP staining; type: cell-based, C57BL/6 Rag2-/- mice
Experimental: 340 Detection was carried out through the AlphaScreen Binding assay with excitation/emission
341 wavelengths set at 680/520-620 nm, respectively, using the Enspire platform.
342 The data acquisition included raw data, represented as signal-background*, % Binding (relative to
343 DMSO controls), and curve fits.
346 is presented in Supplementary Fig. 4A.
349 WM1366 mCherry-GFP-LC3 cells were obtained as a kind gift of Dr. Keiran Smalley’s
350 collaboration with The Wistar Institute and produced as previously described.
352 medium was refreshed with RPMI containing 10% fetal bovine serum, and treated with vehicle
353 control, SG3-014, MA9-060, JQ1, CQ (0.1 µM). After 6 hours, cells were fixed and permeabilized
355 Imaging was performed with an inverted Leica SP8 confocal microscope equipped with an
356 40X/1.3NA oil lens objective. Cells were mounted in a 35 mm FluoroDish Cell Culture Dish (WPI,
357 Sarasota, FL), and z-stacks were acquired at a speed of 400 Hz approximately 30 min post- […]
374 multinucleated (³3 nuclei) osteoclasts were counted using ImageJ [17]. […]
389 distilled water) at 37°C and monitored for development of red stained osteoclasts. […]
392 quantified from multiple tissue sections. […]
397 tumor area (TuA) was calculated as a function of the total tissue area (TotA) of the tibial medullary […]
401 An ex vivo assay was used to quantify the chemosensitivity of primary MM cells. […]

[2] = test system: mesenchymal stem cells (MSCs) and MC3T3-osteoblasts (OBL); assay: MTS assay on MSCs and osteoblasts; type: cell-based; conditions: 0.001-1 µM
Text: Supplementary Figure 3. Characterization of the novel autophagy inhibitor SG3-014. A. Chemical structure
of autophagy inhibitor SG3-014. B. BRD4 gene expression in Moffitt MM Patient Dataset, with MM patients divided
in disease stage cohorts. Data are represented as violin plots. Asterisks denote significance (Significance: (****)
P<0.0001, (***) P<0.001, (**) P<0.01, (*) P<0.05, One-way ANOVA followed by Tukey’s test). C. SG3-014
treatment (0-3 µM) decreases ULK3 protein levels in U266 MM cells (6h). JQ1 is here included as a control for
BRD4 regulation (D). E. The effects of SG3-014 (1µM) and JQ1 (10µM) (6-hour treatment) on steady state levels
of the indicated autophagy proteins in U266 MM cells. Chloroquine (CQ) (1 µM) served as a positive control for
autophagy inhibition. Temsirolimus (Tems) (1 µM), an mTOR inhibitor, is included as a control for autophagy
induction. F.-G. The effects of SG3-014 treatment on autophagic flux. m-Cherry-GFP-LC3B expressing WM1366
melanoma cells were treated with SG3-014 novel inhibitor and effects on autophagic flux were quantified by
confocal microscopy analysis (n = 7). Red puncta indicate ongoing autophagy while yellow mcherry-GFP-LC3B […]
in the acidic autophagosome pH. Quantification (G) is expressed as normalized colocalization: (sum of red and […]
SG3-014 (50 nM) are also shown. […] Quantification is shown in histograms (n = […]

[3] = biological target: JAK2 (Homo sapiens, UniProt O60674); assay: Kinase profiling assay (Reaction Biology), 10-dose IC50, 10 μM ATP; type: biochemical; conditions: read-out: IC50 (nM) JAK2; NA = no activity
Experimental: 310 and refinement were performed with COOT [14] and Phenix.Refine to obtain a clear electron
311 density map (1Fo-Fc) for compound MA9-060, which was built into the structure near the end of
312 iterative cycles of model building and refinement. Crystal parameters, data collection statistics and
313 refinement statistics are summarized in Supplementary Fig. 4D and deposited in the protein
314 databank with PDB code 8V1M.
317 The compounds under investigation were tested by Reaction Biology Corporation against four
318 specific kinases in this study (JAK2, ULK1, ULK2, ULK3). Each compound was provided as a
319 10 mM stock solution. To facilitate dissolution, the compounds were subjected to gentle heating.
320 Subsequent testing involved the evaluation of the compounds using a 10-dose IC50 mode,
Additionally, the control compound,
Throughout these experiments, reactions were conducted using a standardized concentration
325 The data collected during these assays encompass raw data, % enzyme activity (relative to DMSO
327 activities at the highest concentration of compounds were less than 65%. The IC50 summary,
328 detailing the inhibitory concentrations of the compounds against the respective kinases, is
331 Bromodomain profiling assay
332 Briefly, four compounds (SG3-014, MA9-060, JQ1, CQ; stock concentration of 10 mM) were
333 evaluated against Bromodomain 1 by Reaction Biology Corporation. […]

[4] = Microsome stability assay, 1 μM, 1 hour; type: in vitro ADME; conditions: % of compound remaining after 1 hour
Experimental: Supplementary Figure 4. Pharmacokinetic properties of MA90-60 and the structure of the MA9-060: ULK3 […]
complex. Supplementary Figure 5. Pharmacokinetic properties of MA90-60 and the structure of the MA9- […]
060: ULK3 complex. A. Enzymatic inhibition (IC50 nM) of BRD4, JAK2, ULK1, ULK2, ULK3 by SG3014 and […]
here as reference for BRD4 inhibitory activity. CQ is used here as a reference control for autophagy inhibition. NA= […]
“no activity”. B. Microsome stability assay for SG3014 and MA9060, expressed as % of compound remaining after […]
1 hour incubation with liver microsomes. C. X-ray resolved crystal structure of MA9060 (stick model) bound to […]
ULK3 rendered in Pymol (Schrodinger Inc.) at a 2.8 Å resolution. D. Table summarizing hULK3-MA9060 crystallographic data collection and refinement statistics. E. MA9060 is a dual inhibitor, able to decrease both ULK3 and MYC protein levels in MYC-dependent MM1.S MM cells. JQ1 is here included as the control for […]
mesenchymal stem cells (hMSCs) at 24 (G) and 48 (H) hours.
279 wavelengths for each dye. Images were captured through a 40X/1.3NA objective lens with a 2X […]
280 zoom using sequential acquisition on two PMT detectors. […]
286 detection algorithm was used to detect green fluorescence spots with identical intensity and size […]
295 quantification of the remaining compound was determined through High-Performance Liquid […]

## Cc1cnc(Nc2ccc(N3CCN(C)CC3)cc2)nc1Nc1ccc(Cl)c(NS(=O)(=O)C(C)(C)C)c1
[1]
  osteoclastogenesis: potently inhibit
[2]
  effect on mesenchymal stromal cells (MSCs) or osteoblasts: no effect
[3]
  IC50: 4.1 nM
[4]; Human
  Microsomal Stability (%): 53.9%
[4]; Mouse
  Microsomal Stability (%): 3.5%
